{
  "sequences": {"note": "The chains behind the UniProt entries cited, without tags or fusion partners. Residues count along the entry.", "UniProt P35968, 20-1356": "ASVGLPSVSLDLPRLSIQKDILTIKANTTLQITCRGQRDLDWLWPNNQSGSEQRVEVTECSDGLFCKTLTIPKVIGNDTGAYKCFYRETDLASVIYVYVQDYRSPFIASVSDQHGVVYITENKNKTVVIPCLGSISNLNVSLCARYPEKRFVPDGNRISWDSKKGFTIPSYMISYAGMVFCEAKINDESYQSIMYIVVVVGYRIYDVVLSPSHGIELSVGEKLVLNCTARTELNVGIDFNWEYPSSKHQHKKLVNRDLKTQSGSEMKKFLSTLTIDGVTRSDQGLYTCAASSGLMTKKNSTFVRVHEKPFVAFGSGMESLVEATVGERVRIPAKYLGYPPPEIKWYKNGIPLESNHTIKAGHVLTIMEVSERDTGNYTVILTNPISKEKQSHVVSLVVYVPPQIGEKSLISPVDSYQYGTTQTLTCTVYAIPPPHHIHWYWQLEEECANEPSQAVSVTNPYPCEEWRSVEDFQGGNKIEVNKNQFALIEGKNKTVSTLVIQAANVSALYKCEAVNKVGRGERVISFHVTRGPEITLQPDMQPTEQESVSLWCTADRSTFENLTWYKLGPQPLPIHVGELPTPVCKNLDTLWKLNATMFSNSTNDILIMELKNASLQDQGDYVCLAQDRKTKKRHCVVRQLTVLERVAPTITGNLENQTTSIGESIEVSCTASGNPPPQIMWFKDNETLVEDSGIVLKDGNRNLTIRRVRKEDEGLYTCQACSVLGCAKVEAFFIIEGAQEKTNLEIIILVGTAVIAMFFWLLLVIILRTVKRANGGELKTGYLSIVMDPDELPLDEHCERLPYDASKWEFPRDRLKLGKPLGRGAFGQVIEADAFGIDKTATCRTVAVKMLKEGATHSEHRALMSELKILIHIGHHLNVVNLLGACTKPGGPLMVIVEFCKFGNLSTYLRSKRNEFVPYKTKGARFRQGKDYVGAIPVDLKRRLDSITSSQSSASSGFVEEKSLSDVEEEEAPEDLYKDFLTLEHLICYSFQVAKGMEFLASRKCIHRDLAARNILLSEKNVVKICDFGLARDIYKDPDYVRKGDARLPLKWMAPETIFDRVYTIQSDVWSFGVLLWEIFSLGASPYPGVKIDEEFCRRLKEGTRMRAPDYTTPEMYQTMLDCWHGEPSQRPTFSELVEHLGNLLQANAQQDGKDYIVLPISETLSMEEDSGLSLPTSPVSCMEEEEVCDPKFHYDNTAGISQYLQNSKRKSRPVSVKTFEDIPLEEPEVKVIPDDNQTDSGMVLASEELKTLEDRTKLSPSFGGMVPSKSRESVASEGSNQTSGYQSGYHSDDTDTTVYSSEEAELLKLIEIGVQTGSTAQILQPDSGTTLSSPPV"},
  "source": "paper PMC5041959",
  "about": "“A high-content EMT screen identifies multiple receptor tyrosine kinase inhibitors with activity on TGFβ receptor” (Oncotarget, 2016)",
  "biological_target": "VEGFR2 (Homo sapiens, UniProt P35968)",
  "assay": "Biochemical kinase profiling (33PanQinase radiometric assay)",
  "conditions": "read-out: VEGFR2 IC50",
  "data": [
    {"smiles": "Cc1cccc(-c2[nH]ncc2-c2ccc3ncccc3n2)n1", "note": "[RepSox]", "values": [
      {"measurement": "IC50", "result": 264, "unit": "nM"}
    ]}
  ]
}
